From patent publication US10316021B2, “Heteroarylphenoxy benzamide kappa opioid ligands” (Pfizer Inc., priority 2016, dated 2019) come the findings set out here.

Amino acid sequences for entries named in this document (tags omitted).
UniProt P35372, whole entry: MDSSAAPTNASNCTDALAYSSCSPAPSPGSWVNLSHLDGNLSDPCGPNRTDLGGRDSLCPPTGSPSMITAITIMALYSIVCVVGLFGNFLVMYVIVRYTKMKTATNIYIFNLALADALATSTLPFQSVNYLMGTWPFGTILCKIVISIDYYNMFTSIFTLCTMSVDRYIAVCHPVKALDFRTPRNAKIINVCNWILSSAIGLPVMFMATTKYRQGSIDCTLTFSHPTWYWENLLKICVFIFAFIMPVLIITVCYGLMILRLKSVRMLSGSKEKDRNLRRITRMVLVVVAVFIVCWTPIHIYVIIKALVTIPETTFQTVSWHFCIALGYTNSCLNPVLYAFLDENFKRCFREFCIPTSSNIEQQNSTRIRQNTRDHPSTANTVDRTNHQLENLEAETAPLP
UniProt P41145, whole entry: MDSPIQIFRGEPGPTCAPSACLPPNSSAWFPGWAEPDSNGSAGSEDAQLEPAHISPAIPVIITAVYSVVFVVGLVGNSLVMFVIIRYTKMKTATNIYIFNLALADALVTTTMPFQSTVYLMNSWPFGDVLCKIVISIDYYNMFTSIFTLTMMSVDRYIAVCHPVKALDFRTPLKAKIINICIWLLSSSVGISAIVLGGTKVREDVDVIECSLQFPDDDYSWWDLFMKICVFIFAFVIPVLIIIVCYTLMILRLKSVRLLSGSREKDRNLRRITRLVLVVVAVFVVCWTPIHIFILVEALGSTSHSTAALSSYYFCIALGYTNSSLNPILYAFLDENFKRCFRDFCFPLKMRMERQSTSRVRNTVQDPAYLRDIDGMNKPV

For assay [1], the target named is human mu opioid receptor (hMOR) (Homo sapiens, UniProt P35372). Nature of the assay: Mu radioligand binding assay ([3H]diprenorphine, CHO cell membranes). Conditions: read-out: hMOR binding assay Ki; Table 19; geometric mean of 2-6 determinations unless otherwise indicated (Example 3: >=7).
Assay [2] addresses human kappa opioid receptor (hKOR) (Homo sapiens, UniProt P41145). As to the kind of experiment: Kappa radioligand binding assay ([3H]diprenorphine, CHO cell membranes). Conditions: read-out: hKOR binding assay Ki; Table 19; geometric mean of 2-6 determinations unless otherwise indicated (Example 3: >=7). As to the method: Kappa and Mu Radioligand Binding Assay:
Binding assays on membranes from CHO cells expressing human kappa or mu opioid receptors were performed according to standard procedures. Frozen cell paste was homogenized in 50 mM Tris HCl buffer (pH 7.4 @ 4 degrees C.) containing 2.0 mM MgCl2 using a Polytron and spun in a centrifuge at 40,000 g for ten minutes. The final pellet was resuspended in assay buffer (50 mM Tris HCl buffer, pH 7.4, containing 1 mM EDTA, 5 mM MgCl2). Incubations were initiated by the addition of membranes to 96-well plates containing test drugs and [^3H]diprenorphine (0.6 nM final concentration for kappa opioid receptor and 0.5 nM final concentration for mu) in a final volume of 250 μl. Non-specific binding was determined by radioligand binding in the presence of a saturating concentration of naltrexone (10 μM). […] Membrane bound [^3H]diprenorphine levels were determined by liquid scintillation counting of the filterplates in Ecolume scintillation fluid. […] Ki values were calculated according to the Cheng Prusoff equation, Ki=IC50/(1+(L/Kd)), where L is the concentration of the radioligand used in the experiment and the Kd value is the dissociation constant for the radioligand (determined previously by saturation analysis).

On to `Cc1nn(C)cc1C1CCCN1Cc1ccc(Oc2ccc(C(N)=O)cc2F)cc1` (single isomer, unassigned) [Example 5, 4-(4-{[2-(1,3-Dimethyl-1H-pyrazol-4-yl)pyrrolidin-1-yl]methyl}phenoxy)-3-fluorobenzamide], for which the values for the Ki in assay [1] and in assay [2] were 40.7 nM and 1.06 nM, respectively.
